Data from PubChem BioAssay (EPA / NIEHS).
All entries are inconclusive by the source's own rule. Clear calls are listed elsewhere. The calls were made as follows: active = hit-call score of the fitted dose curve at least 0.9, where 1 is the maximum; inconclusive = response in the unintended direction; inactive = score below 0.9.

Sequences of proteins named here, by UniProt entry; tags and fusion partners are left off. A change or cut given only in a name is not applied to a line headed by its entry.
UniProt P62508: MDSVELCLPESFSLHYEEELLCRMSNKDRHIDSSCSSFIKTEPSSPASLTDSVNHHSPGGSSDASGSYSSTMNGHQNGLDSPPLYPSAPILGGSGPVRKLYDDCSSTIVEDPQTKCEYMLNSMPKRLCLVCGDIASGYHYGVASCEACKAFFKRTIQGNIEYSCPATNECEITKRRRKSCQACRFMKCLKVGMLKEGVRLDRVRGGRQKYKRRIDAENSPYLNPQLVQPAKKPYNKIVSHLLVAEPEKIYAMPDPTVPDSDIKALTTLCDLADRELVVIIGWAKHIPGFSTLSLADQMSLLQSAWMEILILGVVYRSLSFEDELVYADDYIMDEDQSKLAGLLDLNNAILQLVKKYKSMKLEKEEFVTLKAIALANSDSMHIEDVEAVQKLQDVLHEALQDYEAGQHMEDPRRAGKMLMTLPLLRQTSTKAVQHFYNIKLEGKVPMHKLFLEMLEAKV
UniProt P04150: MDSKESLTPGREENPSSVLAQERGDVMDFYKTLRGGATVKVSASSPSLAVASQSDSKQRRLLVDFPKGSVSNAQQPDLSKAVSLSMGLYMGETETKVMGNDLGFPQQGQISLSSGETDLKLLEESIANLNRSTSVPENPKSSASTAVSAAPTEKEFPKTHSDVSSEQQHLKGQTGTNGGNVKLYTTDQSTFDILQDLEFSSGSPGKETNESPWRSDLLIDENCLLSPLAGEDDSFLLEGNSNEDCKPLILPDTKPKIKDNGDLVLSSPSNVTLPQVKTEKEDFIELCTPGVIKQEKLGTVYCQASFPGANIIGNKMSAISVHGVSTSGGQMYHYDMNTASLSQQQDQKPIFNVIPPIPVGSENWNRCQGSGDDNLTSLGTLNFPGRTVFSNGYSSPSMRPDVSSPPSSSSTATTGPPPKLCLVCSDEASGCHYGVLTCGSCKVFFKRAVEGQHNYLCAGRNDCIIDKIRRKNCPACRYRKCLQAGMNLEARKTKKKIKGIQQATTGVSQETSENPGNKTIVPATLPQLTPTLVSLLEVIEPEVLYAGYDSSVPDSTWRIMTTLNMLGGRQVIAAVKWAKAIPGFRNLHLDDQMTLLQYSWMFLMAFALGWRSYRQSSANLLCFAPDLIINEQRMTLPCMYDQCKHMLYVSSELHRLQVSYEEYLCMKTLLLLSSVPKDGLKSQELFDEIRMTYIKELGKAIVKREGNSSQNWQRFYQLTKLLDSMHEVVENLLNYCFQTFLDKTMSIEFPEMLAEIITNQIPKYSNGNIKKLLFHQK
UniProt P43354, whole entry, looked up: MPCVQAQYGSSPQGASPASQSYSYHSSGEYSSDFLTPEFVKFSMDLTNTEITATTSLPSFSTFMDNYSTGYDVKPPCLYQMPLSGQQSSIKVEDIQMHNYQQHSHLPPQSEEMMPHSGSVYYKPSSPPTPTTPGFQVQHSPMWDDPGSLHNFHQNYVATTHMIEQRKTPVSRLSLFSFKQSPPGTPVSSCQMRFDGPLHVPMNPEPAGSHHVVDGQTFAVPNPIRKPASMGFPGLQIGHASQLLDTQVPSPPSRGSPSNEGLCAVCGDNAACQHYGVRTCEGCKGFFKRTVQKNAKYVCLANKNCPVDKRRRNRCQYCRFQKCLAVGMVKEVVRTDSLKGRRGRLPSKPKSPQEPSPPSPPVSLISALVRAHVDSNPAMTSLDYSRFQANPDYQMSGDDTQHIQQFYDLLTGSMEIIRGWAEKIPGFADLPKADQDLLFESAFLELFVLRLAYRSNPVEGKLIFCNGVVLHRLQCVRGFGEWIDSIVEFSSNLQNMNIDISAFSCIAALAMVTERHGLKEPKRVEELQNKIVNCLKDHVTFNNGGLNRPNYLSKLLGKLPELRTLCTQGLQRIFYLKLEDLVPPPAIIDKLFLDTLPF
UniProt Q03181: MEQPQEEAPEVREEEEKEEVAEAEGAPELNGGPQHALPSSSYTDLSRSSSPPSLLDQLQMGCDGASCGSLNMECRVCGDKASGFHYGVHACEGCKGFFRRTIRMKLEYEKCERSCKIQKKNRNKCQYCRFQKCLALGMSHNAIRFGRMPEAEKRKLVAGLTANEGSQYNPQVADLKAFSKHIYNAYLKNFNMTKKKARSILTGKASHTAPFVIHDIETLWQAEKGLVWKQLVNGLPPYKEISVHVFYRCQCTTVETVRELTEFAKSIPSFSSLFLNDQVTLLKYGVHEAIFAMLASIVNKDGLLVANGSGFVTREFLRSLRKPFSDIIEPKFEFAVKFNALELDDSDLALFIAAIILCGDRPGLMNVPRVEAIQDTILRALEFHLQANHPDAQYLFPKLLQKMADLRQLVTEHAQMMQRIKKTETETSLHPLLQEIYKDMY
UniProt P37231: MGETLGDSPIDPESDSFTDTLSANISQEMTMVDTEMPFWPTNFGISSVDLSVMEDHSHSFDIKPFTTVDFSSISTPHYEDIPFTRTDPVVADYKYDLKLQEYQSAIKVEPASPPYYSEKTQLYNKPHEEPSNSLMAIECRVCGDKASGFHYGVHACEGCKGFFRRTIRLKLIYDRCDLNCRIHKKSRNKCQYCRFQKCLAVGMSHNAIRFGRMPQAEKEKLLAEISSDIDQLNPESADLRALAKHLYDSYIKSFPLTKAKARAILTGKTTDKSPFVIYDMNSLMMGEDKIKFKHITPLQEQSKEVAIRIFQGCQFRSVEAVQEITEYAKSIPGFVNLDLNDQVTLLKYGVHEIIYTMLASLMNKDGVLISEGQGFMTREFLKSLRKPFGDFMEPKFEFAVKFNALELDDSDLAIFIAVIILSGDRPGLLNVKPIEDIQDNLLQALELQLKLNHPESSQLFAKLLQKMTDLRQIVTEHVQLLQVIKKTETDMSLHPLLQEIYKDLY
UniProt O75469: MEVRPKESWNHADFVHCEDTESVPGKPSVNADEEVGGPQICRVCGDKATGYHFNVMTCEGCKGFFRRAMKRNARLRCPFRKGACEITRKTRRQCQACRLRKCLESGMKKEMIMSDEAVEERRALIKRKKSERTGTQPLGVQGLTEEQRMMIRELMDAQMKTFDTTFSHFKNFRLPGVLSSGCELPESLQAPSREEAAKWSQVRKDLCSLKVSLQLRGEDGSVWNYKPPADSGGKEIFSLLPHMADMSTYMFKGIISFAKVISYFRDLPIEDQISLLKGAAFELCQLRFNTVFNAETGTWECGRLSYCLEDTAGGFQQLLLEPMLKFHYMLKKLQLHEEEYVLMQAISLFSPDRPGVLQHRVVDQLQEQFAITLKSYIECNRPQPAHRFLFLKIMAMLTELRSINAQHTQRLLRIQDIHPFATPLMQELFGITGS
UniProt Q92753: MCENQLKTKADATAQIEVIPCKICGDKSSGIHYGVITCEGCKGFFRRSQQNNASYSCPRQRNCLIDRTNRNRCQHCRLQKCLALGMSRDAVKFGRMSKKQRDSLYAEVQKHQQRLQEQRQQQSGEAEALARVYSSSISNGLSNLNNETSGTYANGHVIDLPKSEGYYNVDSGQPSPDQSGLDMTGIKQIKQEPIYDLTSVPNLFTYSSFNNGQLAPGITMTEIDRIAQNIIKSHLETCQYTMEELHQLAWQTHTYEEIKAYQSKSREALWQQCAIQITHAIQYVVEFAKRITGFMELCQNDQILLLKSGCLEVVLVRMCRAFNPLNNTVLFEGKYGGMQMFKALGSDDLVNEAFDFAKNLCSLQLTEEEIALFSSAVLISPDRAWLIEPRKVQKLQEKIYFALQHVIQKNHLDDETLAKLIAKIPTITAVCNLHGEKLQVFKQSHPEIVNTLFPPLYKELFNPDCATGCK
UniProt P10827: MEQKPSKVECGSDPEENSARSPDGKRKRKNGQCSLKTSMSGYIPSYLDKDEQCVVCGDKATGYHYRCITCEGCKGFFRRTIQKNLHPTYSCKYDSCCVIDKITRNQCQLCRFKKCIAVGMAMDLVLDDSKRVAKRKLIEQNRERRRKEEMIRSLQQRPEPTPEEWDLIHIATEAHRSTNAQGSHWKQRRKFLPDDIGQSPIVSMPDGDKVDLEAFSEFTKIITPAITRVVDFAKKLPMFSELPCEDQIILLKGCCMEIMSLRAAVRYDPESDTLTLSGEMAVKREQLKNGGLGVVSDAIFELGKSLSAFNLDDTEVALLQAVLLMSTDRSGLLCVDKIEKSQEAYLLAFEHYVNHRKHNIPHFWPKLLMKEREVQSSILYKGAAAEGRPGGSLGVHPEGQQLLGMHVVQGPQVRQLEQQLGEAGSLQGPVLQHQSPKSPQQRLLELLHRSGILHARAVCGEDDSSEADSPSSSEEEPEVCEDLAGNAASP
UniProt P11473: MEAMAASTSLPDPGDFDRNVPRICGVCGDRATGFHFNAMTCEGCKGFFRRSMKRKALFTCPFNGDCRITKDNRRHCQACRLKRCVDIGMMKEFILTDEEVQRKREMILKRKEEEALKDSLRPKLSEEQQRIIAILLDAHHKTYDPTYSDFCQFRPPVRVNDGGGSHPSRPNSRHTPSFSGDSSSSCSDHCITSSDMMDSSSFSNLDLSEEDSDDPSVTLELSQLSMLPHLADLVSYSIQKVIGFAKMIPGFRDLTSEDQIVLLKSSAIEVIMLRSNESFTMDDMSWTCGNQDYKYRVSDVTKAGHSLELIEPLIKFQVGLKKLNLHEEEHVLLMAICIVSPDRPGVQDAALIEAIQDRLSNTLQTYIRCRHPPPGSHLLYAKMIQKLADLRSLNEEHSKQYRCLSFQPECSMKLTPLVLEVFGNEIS
UniProt P60484: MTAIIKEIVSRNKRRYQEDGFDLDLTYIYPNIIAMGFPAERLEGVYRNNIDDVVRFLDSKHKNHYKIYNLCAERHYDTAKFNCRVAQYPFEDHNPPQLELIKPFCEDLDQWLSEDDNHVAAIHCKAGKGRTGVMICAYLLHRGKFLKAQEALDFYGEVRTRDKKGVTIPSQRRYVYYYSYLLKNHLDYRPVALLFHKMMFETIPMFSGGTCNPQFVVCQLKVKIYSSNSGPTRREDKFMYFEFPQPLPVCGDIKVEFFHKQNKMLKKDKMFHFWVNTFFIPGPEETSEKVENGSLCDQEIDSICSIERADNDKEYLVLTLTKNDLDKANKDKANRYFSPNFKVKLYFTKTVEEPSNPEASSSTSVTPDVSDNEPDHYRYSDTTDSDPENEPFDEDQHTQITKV
UniProt P10826, whole entry, looked up: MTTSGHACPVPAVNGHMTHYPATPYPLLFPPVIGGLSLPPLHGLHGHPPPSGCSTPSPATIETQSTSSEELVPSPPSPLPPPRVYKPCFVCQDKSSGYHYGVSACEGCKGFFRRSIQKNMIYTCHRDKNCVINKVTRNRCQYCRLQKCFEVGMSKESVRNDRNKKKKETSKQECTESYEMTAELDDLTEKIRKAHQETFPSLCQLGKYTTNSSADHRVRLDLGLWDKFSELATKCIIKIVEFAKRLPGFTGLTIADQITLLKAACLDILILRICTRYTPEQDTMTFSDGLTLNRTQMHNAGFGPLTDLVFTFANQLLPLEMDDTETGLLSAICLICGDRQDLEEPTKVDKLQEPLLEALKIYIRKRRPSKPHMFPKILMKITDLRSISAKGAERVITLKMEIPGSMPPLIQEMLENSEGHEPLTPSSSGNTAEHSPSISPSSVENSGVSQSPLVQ
UniProt P10276, whole entry, looked up: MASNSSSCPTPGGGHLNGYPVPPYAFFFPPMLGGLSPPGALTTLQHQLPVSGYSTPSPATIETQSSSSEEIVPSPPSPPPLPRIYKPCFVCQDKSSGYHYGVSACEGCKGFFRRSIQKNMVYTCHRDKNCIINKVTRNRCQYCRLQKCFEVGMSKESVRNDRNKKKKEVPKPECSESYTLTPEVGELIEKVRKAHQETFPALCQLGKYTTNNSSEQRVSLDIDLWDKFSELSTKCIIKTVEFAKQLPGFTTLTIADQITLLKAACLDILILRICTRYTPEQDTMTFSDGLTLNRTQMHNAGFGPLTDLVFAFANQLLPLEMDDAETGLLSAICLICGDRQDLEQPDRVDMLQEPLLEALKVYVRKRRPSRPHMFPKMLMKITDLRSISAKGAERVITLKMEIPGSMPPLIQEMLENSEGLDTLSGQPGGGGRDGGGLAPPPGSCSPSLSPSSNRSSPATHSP
UniProt P30536, whole entry, looked up: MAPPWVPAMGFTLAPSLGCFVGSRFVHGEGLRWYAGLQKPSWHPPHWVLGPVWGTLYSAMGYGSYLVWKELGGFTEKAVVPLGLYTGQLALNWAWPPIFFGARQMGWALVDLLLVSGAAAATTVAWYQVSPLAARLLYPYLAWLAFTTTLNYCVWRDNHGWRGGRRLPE
UniProt P19793: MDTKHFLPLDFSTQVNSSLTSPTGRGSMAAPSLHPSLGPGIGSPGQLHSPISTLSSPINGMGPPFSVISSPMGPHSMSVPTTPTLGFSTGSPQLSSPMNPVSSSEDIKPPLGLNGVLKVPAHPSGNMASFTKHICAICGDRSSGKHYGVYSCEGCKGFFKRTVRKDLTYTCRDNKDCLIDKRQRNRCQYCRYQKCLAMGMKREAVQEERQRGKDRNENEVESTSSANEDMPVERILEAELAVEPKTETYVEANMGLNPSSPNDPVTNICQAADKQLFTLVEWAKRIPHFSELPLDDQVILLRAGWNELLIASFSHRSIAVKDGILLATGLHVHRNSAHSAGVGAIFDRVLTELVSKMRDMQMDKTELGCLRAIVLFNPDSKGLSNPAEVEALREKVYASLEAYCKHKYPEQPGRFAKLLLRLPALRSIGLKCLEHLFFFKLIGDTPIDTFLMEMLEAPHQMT

Columns and labels:
[1] = biological target: Estrogen-related receptor gamma (Homo sapiens) (UniProt P62508); assay: ATG_ERRg_TRANS: Attagene TRANS-FACTORIAL HepG2 Assay for human Estrogen-Related Receptor gamma (ERRg) (AID 2282977); conditions: HepG2 Attagene TRANS reporter, ERRg transactivation;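 also: hits increase reporter signal over DMSO so potencies reflect activators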
Summary of the method: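 Readout: fluorescent reporter-mRNA fragments resolved by capillary electrophoresis after RT-PCR and HpaI cut. Cells: transiently transfected HepG2 carrying GAL4-UAS reporters driven by exogenous NR-Gal4 chimeras, dosed 24 h. Activity fitted upward relative to DMSO baseline.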

[2] = biological target: Glucocorticoid receptor (Homo sapiens) (UniProt P04150); assay: ATG_GR_TRANS: Attagene TRANS-FACTORIAL HepG2 Assay for human Glucocorticoid Receptor (GR) (AID 2282978); conditions: HepG2 Attagene TRANS GR reporter, mRNA transcription;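 also: activators score as hits since higher reporter transcript over DMSO is fitted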
[3] = biological target: Bile acid receptor (Homo sapiens) (UniProt Q96RI1); assay: ATG_FXR_TRANS: Attagene TRANS-FACTORIAL HepG2 Assay for Farnesoid X Receptor (FXR) (AID 2282979); conditions: HepG2 Attagene TRANS FXR-GAL4 reporter transcription;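 also: hits raise reporter mRNA above DMSO so AC50 marks FXR activation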
Summary of the method: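 HepG2 cells were transiently transfected with GAL4-UAS reporters driven by chimeric NR-Gal4 proteins and dosed for 24 h. Reporter mRNA was quantified by RT-PCR, fluorescent labelling, HpaI digestion and capillary electrophoresis, with gain of signal scored versus DMSO.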

[4] = ATG_M_32_TRANS: Attagene TRANS-FACTORIAL HepG2 Assay for M32 Transcription Factor (Internal Marker) (AID 2282984); conditions: HepG2 Attagene TRANS M32 internal marker reporter
Summary of the method: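 Read-out: fluorescent reporter cDNA fragments resolved by capillary electrophoresis after RT-PCR of total RNA. Transfected HepG2 cells were exposed to chemical for 24 h. Activity scored in the positive direction relative to DMSO.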

[5] = biological target: Nuclear receptor subfamily 4 group A member 2 (Homo sapiens) (UniProt P43354); assay: ATG_NURR1_TRANS: Attagene TRANS-FACTORIAL HepG2 Assay for human Nuclear Receptor Related Protein 1 (NURR1) (AID 2282985); conditions: HepG2 Attagene TRANS reporter, mRNA readout
Summary of the method: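 Read-out: reporter mRNA induction by RT-PCR plus capillary electrophoresis with fluorescence detection, after 24 h dosing of transfected HepG2 cells. Exogenous NR-Gal4 chimera activity drives GAL4-UAS reporter; activity fitted upward versus DMSO.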

[6] = biological target: human Peroxisome Proliferator-activated Receptor delta (PPARd), PPARD (gene 5467) (UniProt Q03181); assay: ATG_PPARd_TRANS: Attagene TRANS-FACTORIAL HepG2 Assay for human Peroxisome Proliferator-activated Receptor delta (PPARd) (AID 2283002)
Summary of the method: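 Fluorescence from capillary electrophoresis of labelled RT-PCR reporter fragments gives the signal; DMSO sets baseline. Cells: HepG2 transiently carrying GAL4-UAS reporter units plus chimeric nuclear receptor-Gal4 proteins, exposed to chemicals for 24 h.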

[7] = biological target: Peroxisome proliferator-activated receptor gamma (Homo sapiens) (UniProt P37231); assay: ATG_PPARg_TRANS: Attagene TRANS-FACTORIAL HepG2 Assay for human Peroxisome Proliferator-activated Receptor-gamma (PPARg) (AID 2283007)
Summary of the method: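 After 24 h of chemical exposure, transfected HepG2 cells carrying PPARγ-Gal4 chimera reporter constructs are lysed for RNA. Reporter transcripts are measured by RT-PCR and capillary electrophoresis with fluorescent labelling, and gain of signal is fitted versus DMSO.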

[8] = biological target: Nuclear receptor subfamily 1 group I member 2 (Homo sapiens) (UniProt O75469); assay: ATG_PXR_TRANS: Attagene TRANS-FACTORIAL HepG2 Assay for human Pregnane X Receptor (PXR) (AID 2283008)
Summary of the method: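 Trans-factorial format: exogenous NR-Gal4 fusion activity, not endogenous factor, in transfected human HepG2 liver cells. After 24 h dosing, RNA isolated, reverse-transcribed, amplified and resolved by capillary electrophoresis; induction scored versus DMSO.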

[9] = biological target: human RAR-related Orphan Receptor beta (RORb), RORB (gene 6096) (UniProt Q92753); assay: ATG_RORb_TRANS: Attagene TRANS-FACTORIAL HepG2 Assay for human RAR-related Orphan Receptor beta (RORb) (AID 2283010);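 also: potency for increased reporter mRNA meaning activation of RORb-Gal4 chimera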
Summary of the method: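 HepG2, transient MRTU transfection (GAL4-UAS reporters, exogenous NR-Gal4 chimeras); 24 h compound exposure; total RNA → RT-PCR → 6-FAM primer extension → HpaI digest → CE fluorescence. Positive direction vs DMSO baseline.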

[10] = biological target: human Thyroid Receptor alpha (THRa1), THRA (gene 7067) (UniProt P10827); assay: ATG_THRa1_TRANS: Attagene TRANS-FACTORIAL HepG2 Assay for human Thyroid Receptor alpha (THRa1) (AID 2283014)
Summary of the method: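 HepG2 cells transiently transfected with chimeric NR-Gal4 and GAL4-UAS reporter units, dosed 24 h. Reporter mRNA quantified by RT-PCR, fluorescent labeling, HpaI digestion and capillary electrophoresis; gain-of-signal fit versus DMSO.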

[11] = biological target: human Vitamin D Receptor (VDR), VDR (gene 7421) (UniProt P11473); assay: ATG_VDR_TRANS: Attagene TRANS-FACTORIAL HepG2 Assay for human Vitamin D Receptor (VDR) (AID 2283022)
Summary of the method: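 HepG2 cells were transiently transfected with GAL4-UAS reporter units and a chimeric VDR-Gal4 construct, then dosed for 24 hours. Reporter mRNA was quantified by RT-PCR, fluorescent labeling, HpaI digestion and capillary electrophoresis; gain of signal analysed vs DMSO.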

[12] = biological target: human Phosphatase and Tensin Homolog (PTEN), PTEN (gene 5728) (UniProt P60484); assay: NVS_ENZ_hPTEN: NovaScreen (NVS) Enzymatic Assay for human Phosphatase and Tensin Homolog (PTEN) (AID 2283203)
Summary of the method: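 Loss of fluorescent product signal after mobility-shift separation reports PTEN activity, recombinant human enzyme, 1 h after compound addition. Single 25 uM duplicate screen, then concentration-response on actives; DMSO baseline.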

[13] = biological target: Steroid hormone receptor ERR1 (Homo sapiens) (UniProt P11474); assay: ATG_ERRa_TRANS: Attagene TRANS-FACTORIAL HepG2 Assay for human Estrogen-Related Receptor alpha (ERRa) (AID 2282971); conditions: HepG2 Attagene TRANS reporter, ERRa transactivation
Summary of the method: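 HepG2 cells transiently transfected with GAL4-UAS reporter units and chimeric NR-Gal4 constructs; after 24 hour compound incubation, reporter mRNA quantified by RT-PCR, fluorescent labelling and capillary electrophoresis, gain of signal versus DMSO.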

[14] = ATG_GAL4_TRANS: Attagene TRANS-FACTORIAL HepG2 Assay for GAL4 (Internal Marker) (AID 2282976); conditions: HepG2 Attagene TRANS GAL4 internal marker reporter
Summary of the method: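 Background-control readout: GAL4-UAS reporter transcript in transiently transfected HepG2 cells after 24 h compound exposure. Measured by RT-PCR, 6-FAM primer extension, HpaI digest and capillary electrophoresis; gain-of-signal fit versus DMSO.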

[15] = biological target: Hepatocyte nuclear factor 4-alpha (Homo sapiens) (UniProt P41235); assay: ATG_HNF4a_TRANS: Attagene TRANS-FACTORIAL HepG2 Assay for human Hepatocyte Nuclear Factor 4 alpha (HNF4a) (AID 2282982); conditions: HepG2 HNF4a transactivation reporter, mRNA readout
Summary of the method: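 Transient MRTU transfection of HepG2, 24 h dosing. Readout: reporter mRNA via RT-PCR + capillary electrophoresis, fluorescence; activity fit upward relative to DMSO control.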

[16] = biological target: human Retinoic Acid Receptor beta (RARb), RARB (gene 5915) (UniProt P10826); assay: ATG_RARb_TRANS: Attagene TRANS-FACTORIAL HepG2 Assay for human Retinoic Acid Receptor beta (AID 2283004)
Summary of the method: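 HepG2 cells were transiently transfected with GAL4-UAS reporter units that report activity of exogenous chimeric NR-Gal4 proteins, then exposed to compound for 24 h. Reporter mRNA was quantified by RT-PCR with capillary electrophoresis fluorescence, as gain of signal over DMSO.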

[17] = biological target: Retinoic acid receptor alpha (Homo sapiens) (UniProt P10276); assay: ATG_RARa_TRANS: Attagene TRANS-FACTORIAL HepG2 Assay for human Retinoic Acid Receptor alpha (RARa) (AID 2283005);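 also: potency for increased reporter signal meaning RARa activation over DMSO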
Summary of the method: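 HepG2 transiently transfected with multiplex GAL4-UAS reporter units including a human RARa–GAL4 chimera; 24 h compound exposure. Reporter mRNA quantified by RT-PCR, 6-FAM labeling and capillary electrophoresis; gain of signal versus DMSO.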

[18] = biological target: human RAR-related Orphan Receptor gamma (RORg), RORC (gene 6097) (UniProt P51449); assay: ATG_RORg_TRANS: Attagene TRANS-FACTORIAL HepG2 Assay for human RAR-related Orphan Receptor gamma (RORg) (AID 2283011);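 also: potency for induction of reporter transcripts above DMSO so activators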
Summary of the method: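 HepG2 cells transiently transfected with GAL4-UAS reporter units and chimeric RORg-Gal4 construct; after 24 h chemical exposure, reporter mRNA measured by RT-PCR with fluorescent capillary electrophoresis, gain of signal fitted against DMSO.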

[19] = biological target: human Peripheral-type Benzodiazepine Receptor (PBR), TSPO (gene 706) (UniProt P30536); assay: NVS_MP_hPBR: NovaScreen (NVS) Membrane Protein Assay for human Peripheral-type Benzodiazepine Receptor (PBR) (AID 2283331);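 also: hits reduce radioligand binding relative to DMSO baseline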
Summary of the method: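 Cell-free radioligand displacement, human colonic membranes, 1 h exposure. Filter radiodetection read-out. Single-concentration duplicates (25 uM), then concentration-response for actives; DMSO negative control.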

[20] = biological target: Nuclear receptor subfamily 1 group I member 2 (Homo sapiens) (UniProt O75469); assay: NVS_NR_hPXR: NovaScreen (NVS) Nuclear Receptor Binding Assay for human Pregnane X Receptor (PXR) (AID 2283365);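 also: a drop in FRET signal versus DMSO baseline means the compound binds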
Summary of the method: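 Cell-free TR-FRET binding assay with extracted human PXR protein, read 2 h after dosing. Primary screen run in duplicate at 25 uM, actives followed in concentration series; loss of signal fitted against DMSO baseline.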

[21] = biological target: Retinoic acid receptor RXR-alpha (Homo sapiens) (UniProt P19793); assay: OT_NURR1_NURR1RXRa_1440: Odyssey Thera (OT) 24-hour HEK293T Protein Complementation Assay for Nurr1/retinoid X receptor (RXR) (AID 2283386)
Summary of the method: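 Fluorescence PCA read-out; HEK293T; 24 h post-dose; bait/prey fused to reporter fragments; gain-of-signal fit vs DMSO negative control.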

[22] = ACEA_ER_AUC_viability: ACEA Biosciences xCELLigence Real-Time Cell Analysis on Estrogen Receptor Agonism for Viability (AID 2283782);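 also: hit means loss of impedance signal meaning reduced cell growth or viability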
Summary of the method: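 Read-out: real-time electrical impedance (RT-CES) area under curve, loss of signal taken as reduced viability, normalized to DMSO baseline. T-47D cells, charcoal-stripped serum medium, compounds up to 100 uM final, continuous exposure, 80 h.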

Measured: AC50

O=C(Cl)OCCOC(=O)Cl
inconclusive: [1] 100 µM | [2] 100 µM | [3] 100 µM | [4] 100 µM | [5] 3.31 µM | [6] 0.0858 µM | [7] 100 µM | [8] 0.358 µM | [9] 100 µM | [10] 100 µM | [11] 100 µM | [12] 0.23 µM

CC(C)CCCCCCCOP(OCCCCCCCC(C)C)Oc1ccccc1
inconclusive: [13] 100 µM | [14] 53.8 µM | [1] 171 µM | [15] 100 µM | [16] 155 µM | [17] 167 µM | [9] 100 µM | [18] 100 µM | [19] 0.0749 µM | [20] 25 µM | [21] 50 µM | [22] 0.00143 µM
